Values quoted from earlier work as cited in article PMC12615863, “Improving GRPR-targeting peptides for radiotheranostics application: insights from chelator modifications and α-methyl-L tryptophan substitution” (EJNMMI Radiopharmacy and Chemistry, 2025).

Protein sequences, listed by entry. Tags and fused reporters are not part of them. Lines headed by an entry give the natural chain unless they say otherwise; changes in a name come on top.
UniProt P30550: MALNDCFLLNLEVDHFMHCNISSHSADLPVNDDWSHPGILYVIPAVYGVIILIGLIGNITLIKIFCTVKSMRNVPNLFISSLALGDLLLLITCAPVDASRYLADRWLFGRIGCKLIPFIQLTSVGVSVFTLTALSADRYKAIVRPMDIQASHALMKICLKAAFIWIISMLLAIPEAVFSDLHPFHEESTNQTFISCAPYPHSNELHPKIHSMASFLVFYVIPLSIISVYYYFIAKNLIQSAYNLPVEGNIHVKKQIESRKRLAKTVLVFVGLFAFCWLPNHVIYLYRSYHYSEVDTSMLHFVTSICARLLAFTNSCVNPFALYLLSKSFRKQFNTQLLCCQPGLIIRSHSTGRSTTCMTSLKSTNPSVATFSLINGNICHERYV

Target: T1, GRPR (Homo sapiens, UniProt P30550)
T1 construct: 3 × 10^6 PC-3 cells were seeded in 100 mm Petri dishes; host or cells: PC-3 human prostate cancer cells
Parameters: method as in PMID 19480415
Conditions: LigandTracer, PC-3 cells, 1 and 5 nM, previously published data, cited from earlier work

Which Kd (read-out: KD1) does the source give for “DOTAGA-PEG2-Pip-[Sar^11]RM26 [[^177Lu]Lu-AU-RM26-M2] [parent compound, AU-RM26-M2 (DOTAGA-PEG2-Pip-[Sar^11]RM26) labeled with Lu-177, previously reported by the authors]” here?
The Kd was 0.192 nM.

What about the Kd (read-out: KD2) of the same substance?
Its Kd is 55.2 nM.

Like-named read-outs stand apart in the source and are kept apart here.
